Data published in ChEMBL document CHEMBL1148802, “Discovery and synthesis of HIV integrase inhibitors: development of potent and orally bioavailable N-methyl pyrimidones” (J Med Chem, 2007).

Experiments:
Homo sapiens = species on record: Homo sapiens; assay: Protein binding in human plasma; conditions: read-out: PPB (converted)
[1] = Protein binding in Sprague-Dawley rat plasma; format: ADME, cell-free; conditions: read-out: PPB (converted)

fraction unbound (Homo sapiens) | fraction unbound [1] | Compound
0.14 |  | CN1C[C@H](F)C[C@H]1c1nc(C(=O)NCc2ccc(F)cc2)c(O)c(=O)n1C
0.06 |  | CN1C[C@@H](F)C[C@H]1c1nc(C(=O)NCc2ccc(F)cc2)c(O)c(=O)n1C
0.05 | 0.05 | CN1CCCCC1c1nc(O)c(O)c(C(=O)NCc2ccc(F)cc2)n1 (centres undefined)
